What was measured:
[1] = dog, 21-day MTD 25 mg/kg
[2] = in vivo; conditions: dog
[3] = target: PRDM9 (Homo sapiens, UniProt Q9NQV7); conditions: 10 μM Compound A; SAM 1 μM; substrate Histone H3
[4] = in vivo; conditions: rat
[5] = rat, calculated from 14-day MTD 150 mg/kg

The chains behind the UniProt entries cited, without tags or fusion partners. Where a name states a change or a piece, a line headed by the entry shows the natural chain unless it says otherwise.
UniProt Q9NQV7: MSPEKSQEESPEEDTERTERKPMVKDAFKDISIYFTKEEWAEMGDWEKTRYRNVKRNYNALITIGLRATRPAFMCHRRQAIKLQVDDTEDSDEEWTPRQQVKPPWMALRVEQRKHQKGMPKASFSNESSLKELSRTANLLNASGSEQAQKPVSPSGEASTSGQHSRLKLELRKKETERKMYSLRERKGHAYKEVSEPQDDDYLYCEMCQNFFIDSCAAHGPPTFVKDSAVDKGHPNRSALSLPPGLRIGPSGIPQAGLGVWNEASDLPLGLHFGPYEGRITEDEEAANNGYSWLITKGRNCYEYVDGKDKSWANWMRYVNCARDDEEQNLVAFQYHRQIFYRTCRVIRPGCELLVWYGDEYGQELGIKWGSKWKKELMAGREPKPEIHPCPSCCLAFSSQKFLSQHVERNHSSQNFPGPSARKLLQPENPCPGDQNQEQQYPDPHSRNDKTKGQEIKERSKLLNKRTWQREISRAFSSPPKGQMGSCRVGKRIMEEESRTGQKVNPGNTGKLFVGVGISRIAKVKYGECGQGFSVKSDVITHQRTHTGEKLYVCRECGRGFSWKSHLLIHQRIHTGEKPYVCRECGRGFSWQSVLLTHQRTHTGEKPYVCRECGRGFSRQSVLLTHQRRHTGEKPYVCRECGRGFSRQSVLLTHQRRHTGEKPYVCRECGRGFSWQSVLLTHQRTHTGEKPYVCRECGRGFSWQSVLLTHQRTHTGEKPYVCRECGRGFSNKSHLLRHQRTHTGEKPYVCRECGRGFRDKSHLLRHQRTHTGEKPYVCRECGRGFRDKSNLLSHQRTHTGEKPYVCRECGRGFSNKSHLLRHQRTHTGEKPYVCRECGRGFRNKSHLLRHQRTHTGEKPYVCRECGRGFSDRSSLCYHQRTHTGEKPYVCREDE

## CCOCC1(COCC)CCC(c2n[nH]cc2CN(C)CCNC)CC1 [Compound A]
[1]
  total AUC or Cave: 3200 nM
[2]
  MTD at 21 days: 25 mg/kg
[3]
  Average % Inhibition: 17.99%
[4]
  MTD at 14 days: 150 mg/kg
[4]; 150 mg/kg
  concentration at 14 days: 2100 nM
[5]
  total AUC or exposure (Cave): 2100 nM

Source: patent US20230094076A1, “COMBINATION THERAPY” (GlaxoSmithKline Intellectual Property Development Limited, priority 2016, published 2023)
